According to ChEMBL document CHEMBL1125382, “Benzazepinone calcium channel blockers. 2. Structure-activity and drug metabolism studies leading to potent antihypertensive agents. Comparison with benzothiazepinones” (J Med Chem, 1992):

Organism: Oryctolagus cuniculus
Assay: Vasorelaxant effects in circumferential strips of potassium-depolarized rabbit aorta. (IC50 in rabbit aorta strips contracted with KCl(95% confidence interval))
Format: functional, organism-based
In short: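 Circumferential strips of rabbit thoracic aorta, contracted by depolarization with 100 mM KCl, then exposed to various concentrations of compound.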

IC50: 1900 nM
SMILES: COc1ccc([C@@H]2Cc3cc(OC)ccc3N(CCN(C)C)C(=O)[C@@H]2OC(C)=O)cc1.Cl
